Assay results published in patent publication WO2009073805A2.

Key:
[1] = molecular target: human TNF α (human) (UniProt P01375); assay: ELISA on TNF α coated plate; pelB7 1 L culture, osmotic shock fraction, 1/10 dilution, duplicate (Table 4)
[2] = molecular target: human TNF α (human) (UniProt P01375); assay: ELISA on TNF α coated plate; unconcentrated culture medium, 1/10 dilution, duplicate (Table 2)
[3] = molecular target: human TNF α (human) (UniProt P01375); assay: solution incubation with TNF α, read by ELISA; Scatchard plot, 25 pM point neglected
[4] = molecular target: human TNF α (human) (UniProt P01375); assay: ELISA on TNF α coated plate; pelB7 1 L culture, wash solution of the osmotic shock procedure, 1/10 dilution, duplicate (Table 4)
[5] = molecular target: human TNF α (human) (UniProt P01375); assay: solution incubation of antibody with 800-25 pM TNF α, read by ELISA; Kd calculated directly at each antigen concentration
[6] = molecular target: human TNF α (human) (UniProt P01375); assay: ELISA on TNF α coated plate; pelB7 1 L culture, medium, 1/10 dilution (Table 4)
[7] = molecular target: human TNF α (human) (UniProt P01375); assay: ELISA on TNF α coated plate; pelB7 1 L culture, osmotic shock fraction, 1/10 dilution (Table 4)
[8] = molecular target: human TNF α (human) (UniProt P01375); assay: ELISA on TNF α coated plate; unconcentrated culture medium, 1/10 dilution (Table 2)
[9] = molecular target: human TNF α (human) (UniProt P01375); assay: ELISA on TNF α coated plate; pelB7 1 L culture, medium, 1/10 dilution, duplicate (Table 4)
[10] = molecular target: human TNF α (human) (UniProt P01375); assay: solution incubation with TNF α, read by ELISA; ratio of the directly calculated Kd values
[11] = molecular target: human TNF α (human) (UniProt P01375); assay: ELISA on TNF α coated plate; pelB7 1 L culture, wash solution of the osmotic shock procedure, 1/10 dilution (Table 4)

Question: What does the source list for “E. coli expressed anti-TNF antibody from construct pelB 7 (ecAnti-TNF) (antibody; other documents disagree on this pair)”?
Answer: ELISA signal [1]: 0.266; ELISA signal [2]: 0.274; Kd [3]: 0.12 nM; ELISA signal [4]: 0.148; Kd [5]: 0.09 nM; ELISA signal [6]: 1.03; ELISA signal [7]: 0.276; ELISA signal [8]: 0.315; ELISA signal [9]: 1.03; fold of Kd against Adalimumab (Humira) [10]: 1.2 fold; ELISA signal [11]: 0.165
